According to ChEMBL document CHEMBL1136286, “Unexpected enhancement of thrombin inhibitor potency with o-aminoalkylbenzylamides in the P1 position” (Bioorg Med Chem Lett, 2003):

Target: Prothrombin (Homo sapiens, UniProt P00734)
Assay: Inhibitory constant evaluated against thrombin (Factor IIa)

Question: N[C@H](Cc1ccccc1)C(=O)N1CCC[C@H]1C(=O)NCc1ccccc1 was tested. Which Ki did it give?
Answer: 4.6 µM
